Molecular target: T1, epidermal growth factor receptor (Homo sapiens, UniProt P00533)
T1 construct: endogenous in cells; host or cells: A431 human epidermoid carcinoma cells
Assay: Tyrosine-kinase activity of the EGF receptor in A431 cells (immunoblotting, densitometry)
Format: cell-based
Method: A431 line human epidermoid carcinoma cells, obtained from the All-Russian Cell Culture Collection (Russian Academy of Sciences Institute of Cytology, St. Petersburg).
Cells are cultured in a CO2 incubator (New Brunswick Scientific) at +37° C. and with a CO2 content of 5%. Cells are grown in these conditions to a monolayer culture and are exposed to the action of the test compounds.
The DMEM medium (OOO PanEko, Moscow) with the addition of gentamicin K (80 mg/l), L-glutamine (300 mg/l) and fetal serum (PAA, Austria) to a final concentration of 10%, is used for culturing cells. Cells are transferred to a medium with a reduced serum content of 0.5% 24 hours before commencing an experiment.

## COc1cc2ncnc(Nc3cccc(Cl)c3)c2cc1OC [AG1478, tyrphostin AG 1478]
1 μg/ml, late stages of incubation (1, 4 and 8 hours)
  effect on EGF receptor tyrosine-kinase activity initiated by EGF: statistically non-reliable increase
2.5 μg/ml, before EGF
  reduction of the tyrosine-kinase activity of the EGF receptor: 30%
5 μg/ml and 7.5 μg/ml, before EGF
  EGF receptor tyrosine-kinase activity: no EGF receptor tyrosine-kinase activity was detected
0.1, 0.25, 0.5 and 0.75 μg/ml
  effect on EGF receptor tyrosine-kinase activity initiated by EGF: did not affect
Inhibitor 7.5 μg/ml acting 15, 20, 25 and 30 min before EGF 200 ng/ml, early and late times
  effect on stimulation of EGF receptor tyrosine-kinase activity by EGF: completely eliminated stimulation
Inhibitor 7.5 μg/ml, 10 min before EGF 200 ng/ml, late times (1 hour, 4 and 8 hours)
  tyrosine-kinase activity retained by the receptors: 10-15%
Introduced 10-25 min before epidermal growth factor
  concentrations that completely inhibit the tyrosine-kinase activity of the EGF receptor: 3 to 7 µg/mL

Source: patent publication US8575382B2, “Low molecular weight pharmacological activity modulators” (“Ivy Pharm” LLC, priority 2009, dated 2013)
